Source: PubChem BioAssay
Sampled rows, rich in hits. Any-hit rate of the full collection: about 2.3%.
ASAP1 GAP inh – inhibitors of human ASAP1 ArfGAP activity, primary screen, biochemical, fluorescence polarization | AID 624377, 2012 | inhibition, % at 16.5 µM | Arf-GAP with SH3 domain, ANK repeat and PH domain-containing protein 1 (Homo sapiens), … | ASAP1-stimulated ARF1 GTP hydrolysis, GDP FP detection | hit rate 0.19% among 360,000; in the data active = inhibition above about 25%;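 note: 0% = vehicle with enzyme and substrate and 100% = no enzyme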
MC4R barr agon – MC4R agonists recruiting beta-arrestin, primary screen, cell-based, luminescence, agonist arm of biased-ligand search. Melanocortin receptor 4 (Homo sapiens), P32245. U2OS MC4R beta-arrestin complementation; percent of melanotan II response, DMSO zero. activation, % at 8.9 µM. hit rate 0.98% among 360,000;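 active = activation above a per-plate cutoff, the mean activation of sample wells on that plate plus 3 SD, cut at about 8% in these data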
ARFGAP1 inhibitor – inhibitors of rat ARFGAP1 GAP activity, primary screen, biochemical, fluorescence polarization, GDP tracer. ADP-ribosylation factor GTPase-activating protein 1 (Rattus norvegicus), Q62848. Arfgap1-stimulated ARF1 GTP hydrolysis, GDP FP detection. inhibition, % at 16.5 µM. hit rate 0.26% among 360,000. AID 651572, 2012;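 active = inhibition above a per-plate limit, mean inhibition of low control wells plus 3 SD, cut at about 25% in these data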;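 note: 0% = DMSO wells with enzyme and 100% = wells lacking Arfgap1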
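System: truncated rat Arfgap1 GAP domain / Benchmarks: high control wells lacking Arfgap1, low control full reaction with DMSO / Times: compound-enzyme preincubation 20 min, reaction 120 min, detection 60 min, 25 °C / Repeats: one replicate per compound / Also added: human ARF1(Δ1-17)-GTP substrate / Measured by: Tracer-displacement fluorescence polarization with EDTA stop, 620/688 nm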
MC4R antagonist – MC4R antagonists of cAMP signaling, primary screen, cell-based, TR-FRET, antagonist arm of biased-ligand search; MC4R-expressing cells, MTII-stimulated cAMP, LANCE TR-FRET; inhibition, % at 6.5 µM; hit rate 0.48% among 360,000; AID 540295, 2011;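 active = inhibition above its plate's cutoff, the mean of tested wells on that plate plus 3 SD, cut at about 29% in these data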;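 note: 0% = Melanotan II alone and 100% = Melanotan II plus saturating MCL0020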
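Material: human MC4R-expressing U2OS cells. Probe or stimulus: Melanotan II challenge. Dosing: 6.5 µM single dose. Times: 30-min compound, 1-h challenge, 1-h detection, room temperature. Technique: TR-FRET with Eu-cAMP and labeled anti-cAMP, 671 nm. Replication: singlicate.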
CendR NRP1 mod – modulators of CendR peptide binding to NRP-1, primary screen, biochemical, fluorescence polarization, uHTS | hit rate 0.85% among 360,000 | inhibition, % at 25 µM | FAM-RPARPAR peptide binding to NRP-1;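 active = inhibition or corrected inhibition above about 18%, plus a signal ratio from 0.5 to 1.5, limit read from the data, passing the limit was not always enough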
UUG fidelity – modulators of yeast start codon fidelity, primary screen, whole organism, S. cerevisiae, single point, plate reader; S. cerevisiae UUG-firefly luciferase reporter, luminescence/redox ratio; activity score, % at 18.7 µM; actives 0.13% (n = 350,000); AID 602363, 2012;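 active = replicate mean at a twofold rise or more, about +100% in these data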;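 also: firefly luciferase made from a UUG start codon reports start codon fidelity; reporter light over untreated wells divided by growth signal over untreated wells; some hits fall short of that in this replicate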
MC4R barr conf – MC4R beta-arrestin agonists, retest, confirmation, cell-based, luminescence, U2OS | shares compounds with MC4R barr agon | hit rate 31% among 2,400 | U2OS MC4R beta-arrestin recruitment; scaled DMSO 0%, Melanotan II 100% | activation, % at 8.9 µM;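 active = mean activation across replicates above the hit cutoff set in the earlier primary screen, cut at about 8% in these data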
MOR DOR agonist – agonists of MOR-DOR heterodimerization, counter-screen for MC4R biased agonist project, cell-based, luminescence. shares compounds with MC4R barr agon. U2OS PathHunter beta-arrestin, beta-gal luminescence; percent of deltorphin B response, DMSO zero. activation, % at 9.2 µM. hit rate 5.8% among 2,400. AID 602194, 2012;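 active = mean activation across replicates exceeds the hit threshold derived in the earlier primary screen, cut at about 18% in these data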;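 note: 100% = deltorphin B at 0.9 µM final and 0% = DMSO alone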
* = called active by the depositor; · = no result given.

Sequences of proteins named here, by UniProt entry; tags and fusion partners are left off.
Melanocortin receptor 4 (Homo sapiens), P32245, UniProt P32245, whole entry, looked up: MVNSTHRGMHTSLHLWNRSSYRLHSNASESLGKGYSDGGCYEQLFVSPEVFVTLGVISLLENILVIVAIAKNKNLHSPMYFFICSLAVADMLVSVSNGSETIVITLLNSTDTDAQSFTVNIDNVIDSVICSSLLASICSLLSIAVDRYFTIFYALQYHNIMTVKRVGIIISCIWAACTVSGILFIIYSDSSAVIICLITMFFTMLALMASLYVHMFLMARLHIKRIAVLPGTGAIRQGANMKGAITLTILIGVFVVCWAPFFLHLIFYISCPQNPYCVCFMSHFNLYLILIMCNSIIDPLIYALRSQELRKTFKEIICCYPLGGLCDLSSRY
ADP-ribosylation factor GTPase-activating protein 1 (Rattus norvegicus), Q62848, UniProt Q62848, whole entry, looked up: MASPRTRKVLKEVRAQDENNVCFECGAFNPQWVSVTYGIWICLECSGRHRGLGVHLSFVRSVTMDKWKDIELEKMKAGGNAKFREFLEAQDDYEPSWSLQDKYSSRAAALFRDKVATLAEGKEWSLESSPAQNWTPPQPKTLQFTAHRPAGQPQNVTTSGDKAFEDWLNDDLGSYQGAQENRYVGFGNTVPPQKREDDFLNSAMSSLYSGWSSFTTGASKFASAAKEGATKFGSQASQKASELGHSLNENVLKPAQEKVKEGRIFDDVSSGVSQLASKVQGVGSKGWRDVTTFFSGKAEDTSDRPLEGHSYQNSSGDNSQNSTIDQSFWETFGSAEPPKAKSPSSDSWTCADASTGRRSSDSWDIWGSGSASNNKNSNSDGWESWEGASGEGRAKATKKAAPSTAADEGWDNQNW

SMILES | ASAP1 GAP inh | MC4R barr agon | ARFGAP1 inhibitor | MC4R antagonist | CendR NRP1 mod | UUG fidelity | MC4R barr conf | MOR DOR agonist
CCCC(=O)Oc1ccccc1C1SCc2cc(C)c(C)cc2CS1 | 1 | 16* | 7 | 10 | 1 | -24 | 5 | 4
CC1CCC(C(C)C)C(OC(=O)Cn2c(-c3ccc(F)cc3)[n+](C)c3ccccc32)C1 (stereo unspecified) | 7 | 17* | 5 | 0 | -7 | 8 | 16* | 5
Cc1ccc(SCC(=O)NC(=O)Nc2ccc3c(c2)OCCO3)cc1C | 4 | 15* | 8 | 5 | 22 | · | 5 | 5
O=C(CSc1ccc2c(c1)OCCO2)Nc1ccc2c(c1)OCO2 | · | 0 | · | 3 | 14 | -15 | · | ·
Cc1nnc(SCC(=O)NC(=O)Nc2ccc3c(c2)OCCO3)s1 | 10 | 0 | 0 | 1 | -11 | · | · | ·
COc1ccccc1Nc1nnc(SCC(=O)NC(=O)Nc2ccc3c(c2)OCCO3)s1 | -5 | 17* | 1 | 5 | -2 | · | -1 | 3
Cc1cccc(Nc2nnc(SCC(=O)NC(=O)Nc3ccc4c(c3)OCCO4)s2)c1 | -6 | 22* | 3 | -1 | 8 | -9 | 11* | 3
C=CCOC(=O)C1=C(C)NC(SCC(=O)Nc2nccs2)=C(C#N)C1c1ccc(Cl)cc1 (stereo unspecified) | 3 | 11* | -4 | 2 | 3 | -21 | 2 | 3
CCOC(=O)N/N=C\c1ccc(OC/C=C/c2ccccc2)cc1 | 8 | 11* | 17 | 2 | 4 | -23 | 0 | 5
C[C@@H](NC(=O)C[C@@H]1CC[C@H]2[C@@H](COc3ccc(NC(=O)C4CCOCC4)cc3C(=O)N2C)O1)c1ccccc1 | · | · | · | · | · | -18 | · | ·
Oc1ccc(/C=N/N2CCN(C3c4ccccc4-c4ccccc43)CC2)cc1O | 9 | 28* | 6 | 18 | 15 | -24 | 13* | 13
C[C@@H]1CN([C@@H](C)CO)C(=O)c2cc(NC(=O)Nc3ccc4c(c3)OCO4)ccc2O[C@@H](C)CCCCO[C@@H]1CN(C)C(=O)C1CCCCC1 | · | · | · | · | · | -12 | · | ·
O=C(NCC1CC1)[C@H]1N[C@H]2c3ccc(-c4ccccc4F)c(=O)n3C[C@H]2[C@@H]1CO | · | · | · | · | · | -3 | · | ·
O=C(COC(=O)/C=C/c1cccc(C(F)(F)F)c1)NC(=O)NCc1ccco1 | 2 | 15* | -2 | -5 | -3 | -11 | 3 | 7
O=[N+]([O-])c1ccc(COc2ccc(-c3[nH]ncc3-c3ccccc3)c(O)c2)cc1 | -2 | 5 | 20 | 4 | 3 | · | · | ·
Oc1cc(OCc2ccccc2)ccc1-c1[nH]ncc1-c1ccccc1 | 19 | 13* | 7 | 4 | 9 | -21 | 5 | 16
COc1ccccc1-c1cn[nH]c1-c1ccc(OCc2ccc(F)cc2)cc1O | 3 | 2 | 11 | 5 | 0 | -16 | · | ·
COc1ccccc1-c1cn[nH]c1-c1ccc(OCc2ccc([N+](=O)[O-])cc2)cc1O | -6 | 15* | 10 | 9 | -8 | -9 | 6 | 7
Cc1ccc(S(=O)(=O)Nc2cccc3c2O[C@@H](CN(C)C(=O)NC(C)C)[C@@H](C)CN([C@H](C)CO)C3=O)cc1 | · | · | · | · | · | 11 | · | ·

Single records, from the list above:
`COc1ccccc1-c1cn[nH]c1-c1ccc(OCc2ccc(F)cc2)cc1O` across the screens: ASAP1 GAP inh: 3; MC4R barr agon: 2; ARFGAP1 inhibitor: 11; MC4R antagonist: 5; CendR NRP1 mod: 0; UUG fidelity: -16; MC4R barr conf: ·; MOR DOR agonist: ·
`Cc1ccc(S(=O)(=O)Nc2cccc3c2O[C@@H](CN(C)C(=O)NC(C)C)[C@@H](C)CN([C@H](C)CO)C3=O)cc1` across the screens: ASAP1 GAP inh: ·; MC4R barr agon: ·; ARFGAP1 inhibitor: ·; MC4R antagonist: ·; CendR NRP1 mod: ·; UUG fidelity: 11; MC4R barr conf: ·; MOR DOR agonist: ·
